Measured values as given in paper PMC6152952.

Amino acid sequences for entries named in this document (tags omitted). A change or cut given only in a name is not applied to a line headed by its entry. Residues count along the entry.
UniProt P61073, whole entry: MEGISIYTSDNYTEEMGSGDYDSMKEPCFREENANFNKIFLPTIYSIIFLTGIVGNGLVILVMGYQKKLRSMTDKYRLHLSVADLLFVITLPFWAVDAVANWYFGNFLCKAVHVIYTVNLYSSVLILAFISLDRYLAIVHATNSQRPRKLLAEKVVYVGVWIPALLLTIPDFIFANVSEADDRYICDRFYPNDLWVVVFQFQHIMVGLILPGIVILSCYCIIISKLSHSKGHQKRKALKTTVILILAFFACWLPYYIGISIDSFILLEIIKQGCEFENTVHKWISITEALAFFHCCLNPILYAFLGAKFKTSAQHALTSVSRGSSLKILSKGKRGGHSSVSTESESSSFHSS
UniProt P25106: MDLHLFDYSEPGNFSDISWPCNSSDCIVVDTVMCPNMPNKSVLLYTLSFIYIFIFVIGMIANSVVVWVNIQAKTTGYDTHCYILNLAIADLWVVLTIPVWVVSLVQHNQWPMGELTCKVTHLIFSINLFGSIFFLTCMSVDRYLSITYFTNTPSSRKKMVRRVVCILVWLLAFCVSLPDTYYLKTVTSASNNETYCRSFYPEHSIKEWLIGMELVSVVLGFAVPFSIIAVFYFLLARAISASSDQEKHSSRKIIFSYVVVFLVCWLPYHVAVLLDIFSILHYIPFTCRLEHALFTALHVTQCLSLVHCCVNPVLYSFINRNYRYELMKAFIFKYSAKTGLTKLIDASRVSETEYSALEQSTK
UniProt P48061, 22-89: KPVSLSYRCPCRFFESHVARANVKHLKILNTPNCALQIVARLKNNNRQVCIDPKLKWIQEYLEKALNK

What was measured:
CXCR4-TANGO = CXCR4-TANGO (UniProt P61073)
ACKR3-TANGO = ACKR3-TANGO (UniProt P25106)
HA-CXCR4 = HA-CXCR4 (UniProt P61073)

CXCL12 (stromal cell-derived factor 1α) (from UniProt P48061-2 22-89) (ligand)
PRESTO-Tango β-arrestin recruitment assay for CXCR4, luminescence as fold of vehicle-treated cells, 200 nM CXCL12 (fold of vehicle-treated cells) (CXCR4-TANGO): 1.8
PRESTO-Tango β-arrestin recruitment assay for ACKR3, luminescence as fold of vehicle-treated cells, 200 nM CXCL12 (fold of vehicle-treated cells) (ACKR3-TANGO): 48
ERK1/2 phosphorylation (pERK1/2/ERK1/2 by Western blot) in HEK293 cells transfected with CXCR4, 100 nM CXCL12, time series (HA-CXCR4): 4 fold
